Results reported in PubChem BioAssay AID504326 (The Scripps Research Institute Molecular Screening Center, 2011).
The entries are a selection whose mix differs from that of the whole data set. The source made the active and inactive calls. Rule as the data show it: active = activation above about 18%; inactive = the rest.

The chains behind the UniProt entries cited, without tags or fusion partners.
UniProt P35372, whole entry, looked up: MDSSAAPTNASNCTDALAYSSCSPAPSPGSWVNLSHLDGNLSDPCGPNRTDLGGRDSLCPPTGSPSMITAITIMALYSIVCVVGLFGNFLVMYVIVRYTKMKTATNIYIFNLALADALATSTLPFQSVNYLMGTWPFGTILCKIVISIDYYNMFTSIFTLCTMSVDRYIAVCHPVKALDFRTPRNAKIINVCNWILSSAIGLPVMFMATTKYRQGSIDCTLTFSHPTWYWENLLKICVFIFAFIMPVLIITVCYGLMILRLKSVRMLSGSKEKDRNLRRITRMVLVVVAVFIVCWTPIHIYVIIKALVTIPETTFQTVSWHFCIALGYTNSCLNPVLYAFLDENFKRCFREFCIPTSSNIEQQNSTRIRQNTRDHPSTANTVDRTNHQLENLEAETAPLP
UniProt P41143, whole entry, looked up: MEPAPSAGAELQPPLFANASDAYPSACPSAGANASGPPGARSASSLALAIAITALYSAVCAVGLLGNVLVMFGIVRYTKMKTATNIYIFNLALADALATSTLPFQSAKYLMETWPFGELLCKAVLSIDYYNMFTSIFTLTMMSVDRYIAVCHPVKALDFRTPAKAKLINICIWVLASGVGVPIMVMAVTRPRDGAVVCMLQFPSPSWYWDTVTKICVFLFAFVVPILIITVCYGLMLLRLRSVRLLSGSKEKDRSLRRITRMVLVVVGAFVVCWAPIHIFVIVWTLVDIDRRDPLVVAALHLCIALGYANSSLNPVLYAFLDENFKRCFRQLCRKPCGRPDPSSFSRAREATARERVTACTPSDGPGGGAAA

The molecules below were run against Mu-type opioid receptor (Homo sapiens) + Delta-type opioid receptor (Homo sapiens) (UniProt P35372+P41143) (assay: agonists of OPRM1-OPRD1 heterodimerization, primary screen, cell-based, luminescence (AID 504326;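 also: 0% = vehicle-treated cells and 100% = reference agonist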)). Details: cells, at 9.3 µM, stronger effect = higher value.

Row | SMILES | activation
1 | Cn1c(=O)c2c(ncn2CC(=O)N/N=C/C=C/c2ccccc2)n(C)c1=O | inactive: -1.2%
2 | CC1CC(C)CN(Cc2nc3c(c(=O)n(C)c(=O)n3C)n2CCN2CCOCC2)C1 (stereo not drawn) | inactive: 1.49%
3 | COc1ccc(CN(C)C(=O)Cn2cnc3c(SC)nc(N)nc32)cc1OC | inactive: -2.78%
4 | CCCC1OP(=O)(Nc2ccccc2)OCC1CC (stereo not drawn) | inactive: -2.04%
5 | O=S(=O)(Nc1ccc2c(c1)nc1n2CCN(Cc2ccccc2)C1)c1ccccc1 | inactive: -2.44%
6 | O=S(=O)(c1ccc(Br)cc1)N1CCn2c(nc3ccccc32)C1 | inactive: 0.01%
7 | CCN1C(=O)CC(N2CCC(Nc3ccc(OC)cc3)CC2)C1=O (stereo not drawn) | inactive: -0.66%
8 | Cn1c(=O)c2ncn(CC(=O)NCCOc3ccc(C(C)(C)C)cc3)c2n(C)c1=O | inactive: -2.01%
9 | O=C(CSc1nc2ccccc2n1CC(=O)NCc1ccccc1)NCc1ccco1 | inactive: -2.33%
10 | CC(=O)Nc1ccc(NC(=O)C2CC(=O)Nc3nc4ccccc4n32)cc1 (stereo not drawn) | inactive: -2.38%
11 | COc1ccc(Cl)cc1NC(=O)Cn1c(NCCO)nc2ccccc21 | inactive: -1.62%
12 | O=C(Cn1cnc2c(OCc3ccccc3)ncnc21)N[C@H](CO)Cc1cc2ccccc2[nH]1 | inactive: -2.97%
13 | O=C(Cn1cnc2ccccc21)Nc1cc(C(F)(F)F)ccc1N1CCOCC1 | inactive: -0.03%
14 | CC(C)(C)NC(=O)Cn1c(SCC(=O)NCc2cccs2)nc2ccccc21 | inactive: -3.59%
15 | O=C(Cn1c(=O)n(CC2CS2)c2ccccc21)N1CCCCCC1 (stereo not drawn) | inactive: 0.9%
16 | O=C(Cn1c(SCC(=O)N2CCc3ccccc32)nc2ccccc21)NC1CCCC1 | inactive: -0.71%
17 | CCn1cc(Cl)c(C(=O)Nc2nc3ccccc3n2CCN2CCCCC2)n1 | inactive: -0.62%
18 | CCCC(=O)Nc1ccc(C(=O)/C=C/c2ccc(SC)cc2)cc1 | inactive: 1%
19 | O=C(Cn1c(C(F)(F)F)nc2ccccc21)NCCN1CCCC1 | inactive: -0.23%
20 | c1ccc2c(c1)nc(-c1ccncc1)n2CCNc1nc(CN2CCCCC2)cs1 | inactive: -3.74%
21 | Cc1cccc(C)c1NC(=O)N1CCC(n2c(=O)[nH]c3ccccc32)CC1 | inactive: -1.77%
22 | Cc1cccc(Cn2c(=O)c3c(nc4n3CCN4Cc3ccco3)n(C)c2=O)c1 | inactive: -2.61%

Row | SMILES | activation
23 | Cc1nn(-c2ccccc2)c2c1P(=O)(N1CCOCC1)N(C)C(c1ccccc1)=N2 (stereo not drawn) | inactive: -0.86%
24 | Cc1ccc(C(=O)OC2CN3CCC2CC3)cc1 (stereo not drawn) | inactive: -1.89%
25 | CC1CCC(C(C)C)C(OP(=O)(Nc2ccccn2)c2ccccc2)C1 (stereo not drawn) | inactive: 6.38%
26 | CCN(CC)C(=O)Cn1c(=O)n(C)c2ccccc21 | inactive: 0.55%
27 | CCN(CC)c1ccc(NC(=O)Cn2c(C(C)NC(=O)c3ccccc3)nc3ccccc32)cc1 (stereo not drawn) | inactive: 0.06%
28 | O=C(Cn1cnc2c(OCc3ccccc3)ncnc21)NCCCc1ccccc1 | inactive: -1.64%
29 | CCC(=O)Nc1nnc(/C=C/c2ccccc2)s1 | inactive: 1.47%
30 | COCCN1CCn2c(nc3cc(NC(=O)c4ccc(OC)cc4)ccc32)C1 | inactive: 1.38%
31 | CCC(C)c1ccc2oc(-c3ccc(NC(=O)Cn4cnc5c(=O)n(C)c(=O)n(C)c54)cc3)nc2c1 (stereo not drawn) | inactive: -1.39%
32 | CCS(=O)(=O)c1nc2ccccc2n1CC(=O)N1CCOCC1 | inactive: -3.11%
33 | O=C(Cn1c(CC(=O)N2CCOCC2)nc2ccccc21)Nc1ccc2c(c1)OC(F)(F)O2 | inactive: -1.78%
34 | O=[N+]([O-])c1ccc(Nc2ccc(Oc3ccc([N+](=O)[O-])cc3[N+](=O)[O-])cc2)c([N+](=O)[O-])c1 | inactive: -2.55%
35 | Cc1cc(SC(NC=O)C(Cl)(Cl)Cl)ncn1 (stereo not drawn) | inactive: -2.57%
36 | CCc1nc2ccccc2n1CC(=O)N1CCN(S(=O)(=O)c2cccc(C(F)(F)F)c2)CC1 | inactive: -0.78%
37 | O=P(Nc1ccccn1)(c1cccc2ccccc12)c1cccc2ccccc12 | inactive: -1.37%
38 | COc1ccccc1C(=O)OCCNC(=O)Cn1cnc2c1c(=O)n(C)c(=O)n2C | inactive: -0.58%
39 | O=C(Cn1c(CCCO)nc2ccccc21)Nc1ccccc1-c1ccccc1 | inactive: -2.01%
40 | C/C(=N\NC(=O)Cn1c(C)nc2ccccc21)c1cccs1 | inactive: -4.2%
41 | CC(C)(C)NC(=O)Cn1c(SCC(=O)NC2CCCCC2)nc2ccccc21 | inactive: -2.72%
42 | CCCNC(=O)Cn1c(=O)n(C)c2ccccc21 | inactive: -0.59%
43 | CCNC(=S)N1CCn2c(nc3ccccc32)C1 | inactive: -0.57%
44 | CC1CN(Cc2nc3c(c(=O)n(C)c(=O)n3C)n2CCN2CCOCC2)CC(C)O1 (stereo not drawn) | inactive: -2.79%

Row | SMILES | activation
45 | Cn1c(=O)c2c(ncn2CC(=O)N/N=C/c2ccc(Br)s2)n(C)c1=O | inactive: -0.81%
46 | COC(=O)c1ccccc1NC(=O)Cn1cnc2c1c(=O)n(C)c(=O)n2C | inactive: -1.53%
47 | Cn1c(=O)n(Cc2ccccc2)c(=O)c2c1nc1n2CCN1Cc1ccco1 | inactive: -3.28%
48 | O=C(Cn1c(CO)nc2ccccc21)Nc1ccc2c(c1)OCCCO2 | inactive: -0.87%
49 | COC(=O)C[C@H](NC(=O)Cn1cnc2c(OCc3ccccc3)ncnc21)C(=O)OC | inactive: -0.32%
50 | Cn1c(=O)[nH]c(=O)c2c1ncn2CCN1CCCCC1 | inactive: -1.86%
51 | CCOC(=O)Nc1cccc([As](=O)(O)O)c1 | inactive: -1.29%
52 | Cc1ccc(NC(=O)Cn2c(=S)[nH]c3ccccc32)cc1 | inactive: -1.37%
53 | Cn1c(=O)c2c(ncn2CC(=O)NCc2cccnc2)n(C)c1=O | inactive: 0.46%
54 | NNC(=O)Cn1c(-c2ccccn2)nc2ccccc21 | inactive: 1.16%
55 | COc1cc(NC(=O)[C@H](C)NC(=O)N2CCn3c2nc2ccccc23)cc(OC)c1 | inactive: -3.08%
56 | O=C(CCCCCNC(=O)N1CCn2c1nc1ccccc12)NCCc1ccccc1 | inactive: -3.75%
57 | Cc1ccc2c(c1)[C@@H]1CN(C)CC[C@@H]1N2S(=O)(=O)c1ccc([N+](=O)[O-])cc1 | inactive: 4.37%
58 | COc1ccc(OCC(=O)N2c3ccc(C)cc3C3CN(C)CCC32)cc1 (stereo not drawn) | inactive: 0.17%
59 | CCC[n+]1cn(/C(C(=S)Nc2cccc(Cl)c2C)=C(/[O-])c2ccc(OC)c(OC)c2)c2ccccc21 | inactive: -6.07%
60 | Cn1c(=O)c2c(ncn2CC(=O)N2CCc3ccccc3C2)n(C)c1=O | inactive: -2.41%
61 | Cc1ccc(-c2csc(N3CCC[C@@H]3C(=O)NCCn3c(C(F)(F)F)nc4ccccc43)n2)cc1 | inactive: 1.96%
62 | CCCNC(=O)CC1C(=O)N(Cc2ccccc2)C(C)c2nc3ccccc3n21 (stereo not drawn) | inactive: 0.63%
63 | CSc1nc(N)nc2c1ncn2CC(=O)NCc1ccccc1 | inactive: -0.32%
64 | CCCN(C(=O)Cn1c(C(F)(F)F)nc2ccccc21)C1CCS(=O)(=O)C1 (stereo not drawn) | inactive: -0.95%
65 | CC(C)[C@H](NC(=O)N1CCn2c1nc1ccccc12)C(=O)N1CCCCC1 | inactive: -0.34%
66 | COc1ccc(/C=N/c2nc3ccccc3n2CCN2CCCCC2)cc1OC | inactive: -1.05%

Row | SMILES | activation
67 | CC(=O)Nc1ccc(NC(=O)Cn2c(CC(=O)N3CCCC3)nc3ccccc32)cc1 | inactive: -2%
68 | Cc1cc(SC(NC(=O)c2ccccc2)C(Cl)(Cl)Cl)nc(C(C)C)n1 (stereo not drawn) | inactive: 0.2%
69 | Cc1ccc2c(c1)C1CN(C)CCC1N2C(=O)COc1ccc(N(C)C(=O)C(C)(C)C)cc1 (stereo not drawn) | inactive: -1.56%
70 | Nc1ncnc2c1ncn2CCN1CCOCC1 | inactive: -3.72%
71 | CC(C)[C@H](NC(=O)N1CCn2c1nc1ccccc12)C(=O)NC1CCCCC1 | inactive: -3.73%
72 | CCN(CC)CCNC(=S)N1CCn2c(nc3ccccc32)C1 | inactive: -2.38%
73 | Cc1ccc2c(c1)C1CN(C)CCC1N2C(=O)c1cccs1 (stereo not drawn) | inactive: -1.31%
74 | O=C(Nc1nc2ccccc2n1CCN1CCCC1)c1ccc(Cl)cc1 | inactive: 4.12%
75 | CC1c2nc3ccccc3n2C(CC(=O)NCc2ccccn2)C(=O)N1Cc1ccccc1 (stereo not drawn) | inactive: -2.01%
76 | CC(=O)Nc1ccc(C(=O)CSc2nc3ccccc3n2CC(=O)N2CCCC2)cc1 | inactive: -1.59%
77 | C[C@H](O)[C@@H]1C(=O)N2CCc3ccc(N4CCN(C)CC4)cc3[C@@H]2C[C@@H]1N(C)C(=O)NC1CCCCC1 | inactive: -0.44%
78 | CC1CCNP(=O)(N(CCCl)CCCl)O1 (stereo not drawn) | inactive: -2.07%
79 | O=C(C1CCN(S(=O)(=O)c2cccc3cccnc23)CC1)N1CCn2c1nc1ccccc12 | inactive: -17.3%
80 | COCC(=O)N(C)[C@H]1C[C@H]2c3cc(-c4ccccc4)ccc3CCN2C(=O)[C@H]1[C@H](C)O | inactive: -2.6%
81 | Cc1ccc(N(CC(=O)N2CCn3c2nc2ccccc23)S(=O)(=O)c2c(C)n[nH]c2C)cc1 | inactive: -1.41%
82 | Cc1cc(C)cc(N(CC(=O)N2CCn3c2nc2ccccc23)S(=O)(=O)c2c(C)noc2C)c1 | inactive: -1.79%
83 | CCCCC(=O)Nc1nnc(/C=C/c2ccc(OC)cc2)s1 | inactive: 2.17%
84 | CC(C)C[C@H](NC(=O)N1CCn2c1nc1ccccc12)C(=O)NCCc1ccccc1 | inactive: -1.27%
85 | Nc1ncnc2c1ncn2CCNCCc1ccccc1 | inactive: -2.53%
86 | O=C(Cn1c(C(F)(F)F)nc2ccccc21)NCCCN1CCOCC1 | inactive: -3.31%
87 | Cc1ccc2c(c1)C1CN(C)CCC1N2C(=O)COc1ccccc1F (stereo not drawn) | inactive: -0.7%
88 | CCOC(=O)Nc1ccc([As](=O)(O)O)c(O)c1 | inactive: -1.41%
